These results are taken from publication PMC7473865, “Repertoire-scale determination of class II MHC peptide binding via yeast display improves antigen prediction” (Nature Communications, 2020).

Assay [1] has as its target T1, recombinant HLA-DR402 (HLA-DRA1*01:01, HLA-DRB1*04:02) (Homo sapiens, UniProt P01903+P01911, A100E/A169T/F76Y/K127E/L162R/M171V/N62H/P40V/Q125Y/Q99D/R42H/S133A/S149N/S66Y/V209L/W38E).
T1 construct: poly-histidine (C); made in house; host or cells: High Five (Hi5) insect cells, baculovirus (pAcGP67a)
Put plainly: biochemical. It counts as binding.

The target in assay [2] is T2, recombinant HLA-DR401 (HLA-DRA1*01:01, HLA-DRB1*04:01) (Homo sapiens, UniProt P01903+P01911, A100K/A169T/F76Y/I96L/K127E/L162R/M171V/N62H/P40V/Q125Y/R42H/S133A/S149N/S66Y/V115G/V209L/W38E).
T2 construct: poly-histidine (C); made in house; host or cells: High Five (Hi5) insect cells, baculovirus (pAcGP67a)
Put plainly: biochemical. It counts as binding.

As to `CC[C@H](C)[C@H](NC(=O)[C@@H](NC(=O)[C@H](CCCNC(=N)N)NC(=O)[C@H](CCSC)NC(=O)[C@H](C)NC(=O)[C@H](CCC(N)=O)NC(=O)[C@@H](NC(=O)[C@H](CCSC)NC(=O)[C@H](CCC(N)=O)NC(=O)[C@H](CCCNC(=N)N)NC(=O)[C@H](C)N)C(C)C)[C@@H](C)O)C(=O)NCC(=O)N[C@H](C(=O)N[C@@H](Cc1c[nH]cn1)C(=O)N1CCC[C@H]1C(=O)O)[C@@H](C)O`, the IC50 in assay [1] amounted to 35.6 nM.

With `CC[C@H](C)[C@H](NC(=O)[C@@H](NC(=O)[C@H](CCCNC(=N)N)NC(=O)[C@H](CCSC)NC(=O)[C@H](C)NC(=O)[C@H](CCC(N)=O)NC(=O)[C@@H](NC(=O)[C@H](CCSC)NC(=O)[C@H](CCC(N)=O)NC(=O)[C@H](CCCNC(=N)N)NC(=O)[C@H](C)N)C(C)C)[C@@H](C)O)C(=O)NCC(=O)N[C@H](C(=O)N[C@@H](Cc1c[nH]cn1)C(=O)N1CCC[C@H]1C(=O)N[C@@H](CO)C(=O)N[C@@H](CO)C(=O)N[C@@H](CO)C(=O)N[C@@H](C)C(=O)NCC(=O)O)[C@@H](C)O`, in assay [2], the IC50 was determined as 3990 nM.
